# Results published in patent publication US20220378936A1, “DELIVERY SYSTEM COMPLEXES COMPRISING A PRECIPITATE OF AN ACTIVE AGENT AND METHODS OF USE” (THE UNIVERSITY OF NORTH CAROLINA AT CHAPEL HILL, priority 2019, published 2022).
# Assay: Pharmacokinetics of platinum in orthotopic CRC mice
# Type: in vivo, mouse
# Conditions: single i.v. injection
# From the text: The orthotopic CT26-FL3 colorectal tumor model was established as previously described^31.
structure (smiles),measurement,value
"O=C1[O][Pt]2([NH][C@@H]3CCCC[C@H]3[NH]2)[O]C1=O [OxP, oxaliplatin]",time post injection over which platinum remained in the plasma,less than 4 h
